Experiments:
[1] = molecular target: T1, Protein kinase C beta type (Homo sapiens, UniProt P05771); assay: Inhibition of PKCbeta2 (unknown origin)
[2] = molecular target: T1, Protein kinase C beta type; assay: Inhibition of PKCbeta1 (unknown origin)

By UniProt entry, the sequences of proteins in these tests, tags left out.
UniProt P05771, whole entry: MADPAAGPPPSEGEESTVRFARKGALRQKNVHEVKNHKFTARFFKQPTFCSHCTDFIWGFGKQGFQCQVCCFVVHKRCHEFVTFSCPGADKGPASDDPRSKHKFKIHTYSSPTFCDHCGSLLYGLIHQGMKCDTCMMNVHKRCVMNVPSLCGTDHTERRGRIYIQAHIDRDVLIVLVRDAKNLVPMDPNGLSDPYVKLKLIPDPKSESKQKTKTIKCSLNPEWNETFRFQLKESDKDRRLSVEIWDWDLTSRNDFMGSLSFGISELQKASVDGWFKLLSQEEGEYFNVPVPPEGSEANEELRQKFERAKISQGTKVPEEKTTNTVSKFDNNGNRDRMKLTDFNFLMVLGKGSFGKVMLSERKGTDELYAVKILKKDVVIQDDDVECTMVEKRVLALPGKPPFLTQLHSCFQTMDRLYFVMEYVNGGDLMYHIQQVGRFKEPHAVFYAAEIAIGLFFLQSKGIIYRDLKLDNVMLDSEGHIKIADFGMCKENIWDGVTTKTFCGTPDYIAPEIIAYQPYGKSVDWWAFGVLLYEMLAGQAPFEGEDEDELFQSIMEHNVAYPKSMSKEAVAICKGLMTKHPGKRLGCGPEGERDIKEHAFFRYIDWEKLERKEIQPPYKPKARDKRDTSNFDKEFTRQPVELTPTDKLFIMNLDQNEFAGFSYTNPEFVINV

Q: Which results are given for `CN1CCN(c2nc(C3=C(c4c[nH]c5ccccc45)C(=O)NC3=O)c3ccccc3n2)CC1` [SOTRASTAURIN]?
A: IC50 [1]: 12.6 nM; IC50 [2]: 7.4 nM

Reference: ChEMBL document CHEMBL5537172 (J Med Chem, 2024)
